Data taken from patent publication US9353089B2, “Compositions and methods for the treatment of malaria” (Saint Louis University, priority 2013, dated 2016).

Amino acid sequences for entries named in this document (tags omitted). Residues count along the entry.
UniProt P56817, 46-501 limits assumed: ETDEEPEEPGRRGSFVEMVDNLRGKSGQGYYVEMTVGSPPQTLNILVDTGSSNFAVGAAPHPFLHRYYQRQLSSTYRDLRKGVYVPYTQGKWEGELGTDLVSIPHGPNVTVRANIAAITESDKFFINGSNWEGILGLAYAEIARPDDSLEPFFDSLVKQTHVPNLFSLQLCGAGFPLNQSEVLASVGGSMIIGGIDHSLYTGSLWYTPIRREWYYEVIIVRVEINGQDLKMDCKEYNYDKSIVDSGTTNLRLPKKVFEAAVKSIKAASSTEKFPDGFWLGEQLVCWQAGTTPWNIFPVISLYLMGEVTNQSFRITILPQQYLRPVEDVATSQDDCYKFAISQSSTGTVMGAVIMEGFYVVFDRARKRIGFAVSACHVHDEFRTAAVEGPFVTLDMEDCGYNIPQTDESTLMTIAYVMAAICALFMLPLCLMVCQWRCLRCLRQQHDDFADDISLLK

Key:
recombinant human BACE1 [1] = target: recombinant human BACE1 (Homo sapiens, UniProt P56817); assay: β-Secretase (BACE1) enzyme inhibition FRET assay; assay type: biochemical; conditions: Table 12
Experimental: (§1) The enzymatic inhibition activity assays were determined using the fluorescence resonance energy transfer (FRET) assay. The assays were performed in a 384-well plate format. […] CatD and CatE were activated by incubation in assay buffer (0.1 M NaOAc, 0.2 M NaCl, pH 3.5) at room temperature for 30 min. Subsequently, the rhBACE-1 substrate (R&D Systems, catalog# ES004), the Cathepsin D and Cathepsin E substrate (R&D Systems, Catalog # ES001) were added accordingly to final concentration 20 μM to initiate the reaction. After 60 min incubation at room temperature, the time-resolved fluorescence at Ex/Em=360 nm/460 nm was measured on an EnVision multilabel plate reader (Perkin-Elmer). The analytical software, GraphPad Prism 5.0 (GraphPad Software, Inc., USA) was used to generate IC50 values via non-linear regression analysis, which are reported in Tables 8-13 below as BACE1 IC50 values.

recombinant human BACE1 [2] = assay: β-Secretase (BACE1) enzyme inhibition FRET assay; assay type: biochemical
Experimental: as §1

Structure (SMILES): COc1cccc(-c2cccc(C3(c4ccccc4)NC(=N)N(C)C3=O)c2)c1 (stereo not shown) [Example 327, 2-imino-5-[3-(3-methoxyphenyl)phenyl]-3-methyl-5-phenyl-imidazolidin-4-one]
- pIC50 (recombinant human BACE1 [1]): 6.41
- BACE1/PM2 Ratio (recombinant human BACE1 [2]): 1.6

Structure (SMILES): COc1cccc(-c2cccc(C3(C4CC4)NC(=N)N(C)C3=O)c2)c1 (stereo not shown) [Example 330, 5-cyclopropyl-2-imino-5-[3-(3-methoxyphenyl)-phenyl]-3-methyl-imidazolidin-4-one]
- pIC50 (recombinant human BACE1 [1]): 6.56
- BACE1/PM2 Ratio (recombinant human BACE1 [2]): 0.370

pIC50: −log10 of the molar value.
